# Results reported in PubChem BioAssay AID651560 (Sanford-Burnham Center for Chemical Genomics, 2012).
# The chains behind the UniProt entries cited, without tags or fusion partners.
# UniProt P24666, whole entry: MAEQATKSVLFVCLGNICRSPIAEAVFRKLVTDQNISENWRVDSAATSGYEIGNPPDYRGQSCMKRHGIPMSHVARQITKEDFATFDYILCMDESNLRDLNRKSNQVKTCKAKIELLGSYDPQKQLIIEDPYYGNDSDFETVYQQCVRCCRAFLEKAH
# This is a selection; strong and weak results do not stand in their true shares. Activity calls are given as the source filed them.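 Rule for the calls: active = compounds that cut the enzyme signal by at least half of the control window in the single-dose screen; inactive = the rest.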
# Target: Low molecular weight phosphotyrosine protein phosphatase (Homo sapiens) (UniProt P24666)
# Experiment: inhibition of human LMPTP-A enzyme – biochemical, fluorescence intensity, uHTS, primary screen (AID 651560);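 note: plate controls were DMSO wells with enzyme plus substrate for no effect and substrate without enzyme for full effect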
# Settings: recombinant LMPTP-A, OMFP fluorogenic substrate, at 20 µM, stronger effect = higher value
# In short: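 Assay system: LMPTP-A enzyme. Input: 0.625 nM LMPTP-A final. Probe or stimulus: 400 µM OMFP. Compound dosing: single 20 µM dose. Schedule: 50 min dark incubation at room temperature. Detection: fluorescence intensity of OMFP turnover product. Read-out: percent inhibition versus substrate-only and uninhibited controls. Benchmarks: no-enzyme low control, uninhibited high control.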
row,Structure (SMILES),inhibition
1,O=c1[nH]c2ccccc2n1C1CCN(C(c2ccccc2)c2nnnn2C2CCCCC2)CC1 (stereo not drawn),inactive: 4.22%
2,O=c1[nH]c2ccccc2n1C1CCN(C(c2cccc3ccccc23)c2nnnn2C2CCCC2)CC1 (stereo not drawn),inactive: 4.07%
3,COc1cc(C(=O)NCC2(N(C)C)CCCCC2)ccc1OC(F)F,inactive: -0.511%
4,CCOC(=O)N1CCC(Nc2cccc(C)c2)CC1,inactive: -2.09%
5,CCOc1ccc(C)cc1CN(CCCl)CCCl,inactive: -5.36%
6,O=C1CCN(Cc2ccccc2)CC1,inactive: 4.26%
7,CC(C)(C)n1nnnc1C(c1ccccc1)N1CCC(n2c(=O)[nH]c3ccccc32)CC1 (stereo not drawn),inactive: 4.64%
8,CCOC(=O)N1CCC(Nc2ccc(F)cc2)CC1,inactive: -3.85%
9,COc1ccc(NC2CCN(CCc3ccccc3)CC2)c(OC)c1,inactive: -4.43%
10,O=C(NCC1(N2CCCCC2)CCCCC1)c1ccc(F)cc1,inactive: -0.678%
11,CCCCOc1ccc(C(=O)NCC2(N3CCOCC3)CCCCC2)cc1,inactive: -0.882%
12,O=P1(N(CCCl)CCCl)SCCCS1,inactive: -2.05%
13,CCCCn1nnnc1C(c1cc2ccccc2o1)N1CCC(n2c(=O)[nH]c3ccccc32)CC1 (stereo not drawn),inactive: 4.22%
14,O=C(NCC1(N2CCOCC2)CCCCC1)c1cc2ccccc2o1,inactive: -1.12%
15,Cc1cc(C)cc(N(C(=O)c2ccccc2)C2CCN(C(=O)OC(C)(C)C)CC2)c1,inactive: 1.27%
16,O=c1[nH]c2ccccc2n1C1CCN(C(c2ccccc2OC(F)(F)F)c2nnnn2C2CCCCC2)CC1 (stereo not drawn),inactive: 2.73%
17,O=C(NCC1(N2CCCCC2)CCCCC1)c1ccc(Cl)nc1,inactive: 0.754%
18,CCCCn1nnnc1C(c1ccc(OC)cc1)N1CCC(n2c(=O)[nH]c3ccccc32)CC1 (stereo not drawn),inactive: 4.18%
19,CCOC(=O)N1CCC(Nc2ccc(OC)cc2)CC1,inactive: 0.63%
20,COc1ccc(Cl)cc1C(=O)NCC1(N2CCOCC2)CCCCC1,inactive: -1.92%
21,O=c1[nH]c2ccccc2n1C1CCN(C(c2cc3ccccc3o2)c2nnnn2C2CCCCC2)CC1 (stereo not drawn),inactive: 4.28%
22,O=C(OC1CN2CCC1CC2)C1c2ccccc2Oc2ccccc21 (stereo not drawn),inactive: -1.23%

row,Structure (SMILES),inhibition
1,N#CC1(Nc2ccccc2)CCN(Cc2ccccc2)CC1,inactive: -1.16%
2,O=C(NCC1(N2CCCCC2)CCCCC1)c1ccc(Cl)s1,inactive: 0.667%
3,CCCCn1nnnc1C(c1cccs1)N1CCC(n2c(=O)[nH]c3ccccc32)CC1 (stereo not drawn),inactive: 2.8%
4,O=C(NCC1(N2CCCCC2)CCCCC1)c1cccs1,inactive: -6.65%
5,CCCCn1nnnc1C(CC)N1CCC(n2c(=O)[nH]c3ccccc32)CC1 (stereo not drawn),inactive: 2.06%
6,O=C(NCC1(N2CCCCC2)CCCCC1)c1ccc(=O)[nH]c1,inactive: -1.46%
7,CCC(c1nnnn1C1CCCC1)N1CCC(n2c(=O)[nH]c3ccccc32)CC1 (stereo not drawn),inactive: 2.05%
8,CC(C)(C)OC(=O)N1CCC(N(C(=O)c2ccccc2)c2ccc(F)cc2)CC1,inactive: -0.972%
9,COc1ccc(C(=O)NCC2(N3CCCCC3)CCCCC2)c(OC)c1OC,inactive: 0.585%
10,COc1ccc(C(=O)NCC2(N3CCCCC3)CCCCC2)cc1,inactive: 3.83%
11,Cc1cccc(NC2(C#N)CCN(Cc3ccccc3)CC2)c1,inactive: -0.337%
12,CSc1ccccc1C(=O)NCC1(N2CCCCC2)CCCCC1,inactive: 1.99%
13,O=C(NCC1(N2CCCCC2)CCCCC1)c1cncc(Br)c1,inactive: 2.19%
14,CN1CCC(Nc2cccc(F)c2)CC1,inactive: -2.29%
15,CCCOc1ccc(C(=O)NCC2(N(C)C)CCCCC2)cc1OC,inactive: 0.343%
16,Cc1ccc(C(=O)NCC2(N(C)C)CCCCC2)o1,inactive: -0.627%
17,COc1ccc(C(c2nnnn2C2CCCC2)N2CCC(n3c(=O)[nH]c4ccccc43)CC2)cc1 (stereo not drawn),inactive: 3.87%
18,CN(C)c1cccc(C(=O)NCC2(N3CCCCC3)CCCCC2)c1,inactive: 0.413%
19,COc1ccc(CN(CCCl)CCCl)cc1Cl,inactive: -5.71%
20,CC(C)c1ccc(NC2CCN(C(=O)OC(C)(C)C)CC2)cc1,inactive: 0.245%
21,CCCCn1nnnc1C(c1ccccc1OC(F)(F)F)N1CCC(n2c(=O)[nH]c3ccccc32)CC1 (stereo not drawn),inactive: 7.36%
22,CCCCn1nnnc1C(c1ccnc2ccccc12)N1CCC(n2c(=O)[nH]c3ccccc32)CC1 (stereo not drawn),inactive: 6.26%

row,Structure (SMILES),inhibition
1,CCC(c1nnnn1C(C)(C)C)N1CCC(n2c(=O)[nH]c3ccccc32)CC1 (stereo not drawn),inactive: 5%
2,O=C(NCC1(N2CCOCC2)CCCCC1)c1cc(F)c(F)cc1Cl,inactive: -1.51%
3,COc1cc(OC)c(C(=O)NCC2(N(C)C)CCCCC2)cc1OC,inactive: -2%
4,O=C(NCC1(N2CCCCC2)CCCCC1)c1cccc(C(F)(F)F)c1,inactive: 1.16%
5,CCCCn1nnnc1C(c1cccc2ccccc12)N1CCC(n2c(=O)[nH]c3ccccc32)CC1 (stereo not drawn),inactive: 5.26%
6,CC(C)c1ccc(C(=O)NCC2(N3CCOCC3)CCCCC2)cc1,inactive: -0.0176%
7,COc1ccc(NC2CCN(C(=O)OC(C)(C)C)CC2)cc1,inactive: 0.948%
8,CN1CCN(CCOC(=O)C(O)(c2ccccc2)c2ccccc2)CC1,inactive: -3.28%
9,O=C(NCC1(N2CCOCC2)CCCCC1)c1cc(=O)[nH]c2ccccc12,inactive: -0.919%
10,COc1cc(C(=O)NCC2(N3CCCCC3)CCCCC2)ccc1OC(F)F,inactive: 7.82%
11,O=C(NCC1(N2CCCCC2)CCCCC1)c1ccc(OC(F)F)cc1,inactive: 1.87%
12,CC(C)(C)n1nnnc1C(c1ccccc1OC(F)(F)F)N1CCC(n2c(=O)[nH]c3ccccc32)CC1 (stereo not drawn),inactive: 5.14%
13,CSc1ccc(C(=O)NCC2(N3CCOCC3)CCCCC2)cc1,inactive: 0.441%
14,O=C(NCC1(N2CCCCC2)CCCCC1)c1cccc([N+](=O)[O-])c1,inactive: 1.91%
15,N#CC1(Nc2ccccc2)CCN(CCc2ccccc2)CC1,inactive: 0.722%
16,O=c1[nH]c2ccccc2n1C1CCN(C(c2ccccc2OC(F)(F)F)c2nnnn2C2CCCC2)CC1 (stereo not drawn),inactive: 5.57%
17,CCN1CCC(Nc2ccc(Cl)cc2)CC1,inactive: -3.02%
18,Cc1cc(N(CCCl)CCCl)ccc1C=O,inactive: -1.55%
19,CCCN1CCC(Nc2cc(OC)cc(OC)c2)CC1,inactive: -1.35%
20,O=c1[nH]c2ccccc2n1C1CCN(C(c2ccccc2)c2nnnn2C2CCCC2)CC1 (stereo not drawn),inactive: 3.71%
21,c1ccc(CN2CCC(Nc3ccccc3)CC2)cc1,inactive: -0.0684%
22,CN(C)C1(CNC(=O)c2cccc(C#N)c2)CCCCC1,inactive: -1.84%

row,Structure (SMILES),inhibition
1,CC(C)(C)n1nnnc1C(c1cccc2ccccc12)N1CCC(n2c(=O)[nH]c3ccccc32)CC1 (stereo not drawn),inactive: 6.57%
2,CC(C)(C)OC(=O)N1CCC(N(C(=O)c2ccccc2)c2ccc(Cl)cc2)CC1,inactive: 1.72%
3,N#Cc1ccc(C(=O)NCC2(N3CCCCC3)CCCCC2)cc1,inactive: -2.07%
4,N/C(=N\O)c1c(N)no[n+]1[O-],inactive: -2.78%
5,COc1cccc(C(c2nnnn2C(C)(C)C)N2CCC(n3c(=O)[nH]c4ccccc43)CC2)c1OC (stereo not drawn),inactive: 6.31%
6,CCOC(=O)N1CCC(Nc2ccc(C)cc2)CC1,inactive: -3.22%
7,CCCCn1nnnc1C(c1cccc(OC)c1OC)N1CCC(n2c(=O)[nH]c3ccccc32)CC1 (stereo not drawn),inactive: 5.21%
8,O=c1[nH]c2ccccc2n1C1CCN(C(c2cccs2)c2nnnn2C2CCCC2)CC1 (stereo not drawn),inactive: 3.79%
9,O=C(OC1CN2CCC1CC2)C1c2ccccc2C=Cc2ccccc21 (stereo not drawn),inactive: 0.122%
10,O=C(NCC1(N2CCOCC2)CCCCC1)c1cc(Br)ccc1Cl,inactive: 0.161%
11,COc1cc(C(=O)NCC2(N3CCOCC3)CCCCC2)cc(OC)c1C,inactive: -0.733%
12,CCCCn1nnnc1C(c1ccccc1)N1CCC(n2c(=O)[nH]c3ccccc32)CC1 (stereo not drawn),inactive: 2.42%
13,O=c1[nH]c2ccccc2n1C1CCN(C(c2ccnc3ccccc23)c2nnnn2C2CCCC2)CC1 (stereo not drawn),inactive: 7.36%
14,COc1ccc(C(=O)NCC2(N3CCOCC3)CCCCC2)cc1OC,inactive: -0.564%
15,O=c1[nH]c2ccccc2n1C1CCN(C(c2cccs2)c2nnnn2C2CCCCC2)CC1 (stereo not drawn),inactive: 3.79%
16,CCC(CO)(C(=O)OC1CN2CCC1CC2)c1ccccc1 (stereo not drawn),inactive: -0.335%
17,COc1cccc(C(=O)N(c2cc(C)cc(C)c2)C2CCN(C(=O)OC(C)(C)C)CC2)c1,inactive: 1.86%
18,COc1cccc(C(c2nnnn2C2CCCC2)N2CCC(n3c(=O)[nH]c4ccccc43)CC2)c1OC (stereo not drawn),inactive: 5.15%
19,COc1cc(OC)cc(C(=O)NCC2(N3CCOCC3)CCCCC2)c1,inactive: -0.307%
20,CN1CCC(Nc2ccc(Cl)cc2)CC1,inactive: -5.21%
21,CN1CCC(Nc2ccc(F)c(Cl)c2)CC1,inactive: -3.84%
22,CCOc1ncccc1C(=O)NCC1(N2CCOCC2)CCCCC1,inactive: -1.22%

row,Structure (SMILES),inhibition
1,CCCOc1ccc(C(=O)NCC2(N(C)C)CCCCC2)cc1,inactive: 0.685%
2,O=c1[nH]c2ccccc2n1C1CCN(C(c2cc3ccccc3o2)c2nnnn2C2CCCC2)CC1 (stereo not drawn),inactive: 4.64%
3,NN(c1ccccc1)C1CCN(CCc2ccccc2)CC1,inactive: -0.556%
4,O=C(O)C1(Nc2ccccc2)CCN(Cc2ccccc2)CC1,inactive: -0.343%
5,CC(C)(C)OC(=O)N1CCC(Nc2ccccc2)CC1,inactive: -0.532%
6,CC(C)(C)n1nnnc1C(c1ccnc2ccccc12)N1CCC(n2c(=O)[nH]c3ccccc32)CC1 (stereo not drawn),inactive: 8.87%
7,CCN1CCC(Nc2cccc(F)c2)CC1,inactive: -2.32%
8,COc1ccc(C(c2nnnn2C2CCCCC2)N2CCC(n3c(=O)[nH]c4ccccc43)CC2)cc1 (stereo not drawn),inactive: 4.97%
9,Cc1ccccc1NC1(C#N)CCN(Cc2ccccc2)CC1,inactive: -1.54%
10,Cn1c(=O)[nH]cc(N(CCCl)CCCl)c1=O,inactive: -1.11%
11,CN(C)c1ccc(C(=O)NCC2(N3CCCCC3)CCCCC2)cc1,inactive: 0.258%
12,O=C(NCC1(N2CCCCC2)CCCCC1)c1ccco1,inactive: -1.68%
13,O=c1[nH]c2ccccc2n1C1CCN(C(c2ccnc3ccccc23)c2nnnn2C2CCCCC2)CC1 (stereo not drawn),inactive: 8.47%
14,COc1cc(OC)cc(C(=O)NCC2(N3CCCCC3)CCCCC2)c1,inactive: -0.396%
15,CCC(c1nnnn1C1CCCCC1)N1CCC(n2c(=O)[nH]c3ccccc32)CC1 (stereo not drawn),inactive: 3.34%
16,CC(=O)N(c1ccccc1)C1CCNCC1,inactive: -0.791%
17,COc1cccc(C(c2nnnn2C2CCCCC2)N2CCC(n3c(=O)[nH]c4ccccc43)CC2)c1OC (stereo not drawn),inactive: 5.77%
18,Cc1ccc(NC2(C#N)CCN(Cc3ccccc3)CC2)cc1,inactive: -0.418%
19,Fc1ccccc1NC1CCN(Cc2ccccc2)CC1,inactive: -0.942%
20,Cc1ccc(C(=O)NCC2(N3CCCCC3)CCCCC2)o1,inactive: 0.502%
